The values below are quoted from earlier work in PMC11106675, “Synthesis of 1,4-azaphosphinine nucleosides and evaluation as inhibitors of human cytidine deaminase and APOBEC3A” (Beilstein Journal of Organic Chemistry, 2024).

For data set [1] the following is noted: in solution (water).
The subject of data set [2] is CDA. To be noted: read-out: inhibition constant (Ki).

Molecules are shown by their SMILES.

Usually Ki stands for a dissociation constant, usually derived from enzyme kinetics or from competition with a known ligand. Consider `NP1(=O)C=CN([C@@H]2O[C@H](CO)[C@@H](O)[C@H]2O)C(=O)N1` (some centres unmarked), for which the stability in solution result in data set [1] is recorded as “unstable in solution”. Also, the Ki in data set [2] was 0.9 nM.
